# Results reported in paper PMC4507791 (2015).
# Chains of the proteins cited; added tags and fusions are not shown.
# UniProt P27338, whole entry: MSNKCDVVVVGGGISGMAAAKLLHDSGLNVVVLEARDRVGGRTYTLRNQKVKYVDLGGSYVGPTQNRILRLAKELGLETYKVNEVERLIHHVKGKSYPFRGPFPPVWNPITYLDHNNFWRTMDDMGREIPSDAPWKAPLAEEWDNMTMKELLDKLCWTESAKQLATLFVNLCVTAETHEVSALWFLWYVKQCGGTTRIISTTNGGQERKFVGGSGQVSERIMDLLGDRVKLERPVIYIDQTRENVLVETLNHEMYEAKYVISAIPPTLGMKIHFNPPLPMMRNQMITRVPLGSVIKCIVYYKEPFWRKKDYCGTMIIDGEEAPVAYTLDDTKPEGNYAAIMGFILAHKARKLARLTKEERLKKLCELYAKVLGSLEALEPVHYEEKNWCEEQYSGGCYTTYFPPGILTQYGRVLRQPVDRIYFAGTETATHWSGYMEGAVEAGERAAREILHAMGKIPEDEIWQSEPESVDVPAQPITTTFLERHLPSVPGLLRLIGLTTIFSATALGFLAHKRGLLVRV
# Several values for one entry are separate records, joined by “and”; a condition that tells them apart may be missing. Identical values can stand only once.
# Molecular target: MAO-B (Homo sapiens, UniProt P27338)
# Test: IC50 determination, inhibition of recombinant human MAO-B
# Format: biochemical
# Settings: for SI (selectivity index, IC50(MAO-A)/IC50(MAO-B)): selectivity for the MAO-B isoform
SMILES,"SI (selectivity index, IC50(MAO-A)/IC50(MAO-B))",IC50 [µM]
"CC(=O)c1ccc(OCc2ccc(F)cc2)cc1O [Compound 2e, 2-Acetyl-5-(4-fluorobenzyloxy)phenol]","1,233",–
"CC(=O)c1ccc(OCc2cccc(F)c2)cc1O [Compound 2d, 2-Acetyl-5-(3-fluorobenzyloxy)phenol]","> 9,550 and 17,482",–
"CC(=O)c1ccc(OCc2ccc(Cl)cc2)cc1O [Compound 2g, 2-Acetyl-5-(4-chlorobenzyloxy)phenol]",–,0.014 ± 0.002
